Reference: patent US20210230248A1, “Multivalent pharmacophores for high avidity and overexpressed-target specific binding and uses thereof” (priority 2020, published 2021)

Experiments:
[1] = target: T1, Human recombinant PD-L1 (Homo sapiens); assay: Binding to PD-L1 coated MSD plate; settings: test items at 5 nM; plate coated at 40 nM; FIG. 4A
T1 construct: purchased Abcam
Description: (§1) The plates were shaken for another 1 h at room temperature. After washing, SULFO-TAG anti-mouse IgG antibody was added into the plates. The plates were further incubated for 1 h and then washed and read after adding 1×MSD Read Buffer. […] The wells without coating were used as background binding.

Human recombinant PD-L2 = target: T2, Human recombinant PD-L2 (Homo sapiens, UniProt Q9BQ51); assay: Binding to PD-L2 coated MSD plate; settings: test items at 5 nM; plate coated at 40 nM; FIG. 4B
T2 construct: purchased Abcam
T2 sequence (Q9BQ51 20-273): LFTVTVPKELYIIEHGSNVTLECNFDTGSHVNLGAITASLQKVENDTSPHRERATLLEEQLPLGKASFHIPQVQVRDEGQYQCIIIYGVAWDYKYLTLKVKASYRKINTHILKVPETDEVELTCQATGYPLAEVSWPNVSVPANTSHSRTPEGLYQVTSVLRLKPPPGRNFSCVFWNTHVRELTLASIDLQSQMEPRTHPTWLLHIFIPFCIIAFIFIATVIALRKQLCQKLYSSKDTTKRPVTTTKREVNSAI
Description: Human recombinant PD-L1, PD-L2 and CD80 (Abcam) at the concentration of 40 nM were coated onto wells of 96-well MSD plate (small spot, 40 μL/well) overnight at 4° C., and then blocked with 3% MSD Blocking Buffer for 1 h. […] The plates were shaken for another 1 h at room temperature. After washing, SULFO-TAG anti-mouse IgG antibody was added into the plates. The plates were further incubated for 1 h and then washed and read after adding 1×MSD Read Buffer. SULFO-TAG anti-human IgG antibody was added into the plate of PD-L1 Fc chimera proteins. The wells without coating were used as background binding.

Human recombinant CD80 = assay: Binding to CD80 coated MSD plate; settings: competitive binding against CD80 to PD-L1
Description: as §1

[2] = target: T1, Human recombinant PD-L1 (Homo sapiens); assay: Selective binding to high-density PD-L1 coated plates; settings: 5 nM; PD-L1 coating from 80 nM, 1:1 dilution, 8 titrations; FIG. 5
Description: Human recombinant PD-L1 was coated onto wells of MSD 96-well plate with the concentrations starting from 80 nM and 1:1 dilution for 8 titrations (40 μL/well). The empty wells were added with PBS. After overnight coating at 4° C. and blocked with 3% MSD Blocking Buffer for 1 h, 4-arm PEG-2K PD-1ecto, 4-arm PEG-6K PD-1ecto, 6-arm PEG-3.4K PD-1ecto, and 6-arm PEG-10K PD-1ecto (all at 5 nM, 40 μL/well) were added into the pre-coated wells. Biotin conjugated anti-human PD-L1 antibody (clone 10F.9G2, Biolegend) was used as a control. […] After additional 1 h incubation at room temperature and washing, SULFO-TAG anti-mouse IgG antibody was added and the plate was incubated for 1 h. The plate was washed and read after adding 1× Read Buffer. For control wells (clone 10F.9G2), SULFO-TAG streptavidin was added.

[3] = target: T3, low PD-L1 expressing PC3 cells (Homo sapiens); assay: Competitive binding assay on low PD-L1 expressing PC3 cells (control); settings: data not shown
T3 construct: endogenous in cells; host or cells: PC3 cells
From the text: (§2) PC3, a low PD-L1 expressing cell is used as a control.

[4] = target: T4, PD-L1 overexpressing SU-DHL-1 cells (Homo sapiens); assay: Competitive binding assay on PD-L1 overexpressing SU-DHL-1 cells; settings: antibody at ~33.3 nM, assuming linear relationship
T4 construct: endogenous in cells; host or cells: SU-DHL-1 cells
Description: as §2
PE-conjugated mouse anti-human PD-L1 antibody (Clone MIN1, eBioscience) at the final concentration of 0.5 μg/100 μL (˜33.3 nM) was mixed with 4-arm PEG-2K PD-1ecto or 6-arm PEG-3.4K PD-1ecto titrated from 50 nM to 1 nM in Stain Buffer. SU-DHL-1 cells (0.5×10^6 cells) were resuspended in each titration of reagent in a final volume of 100 μL per well. After incubation for 3 h on ice with occasional mixing, the cells were washed 3 times. The amount of anti-PD-L1 antibody bound to the cells was quantified by the fluorescence intensity of PE using flow cytometry.

Molecule	binding to PD-L1 coated plate [1]	binding to PD-L2 coated plate (Human recombinant PD-L2)	inhibition of PD-L1 Fc chimera binding to CD80 plate (Human recombinant CD80)	binding as a function of PD-L1 surface density [2]	binding to low PD-L1 expressing PC3 cells [3]	competitive binding against PD-L1 blocking antibody on PC3 cells [3]	fold more potent than the PD-L1 blocking antibody [4]
4-arm PEG PD-1ecto: tetravalent PEG PD-1 ectodomain pharmacophore, arm length not stated at the place (2K and 6K forms made) (conjugate) PGWFLDSPDRPWNPPTFSPALLVVTEGDNATFTCSFSNTSESFVLNWYRMSPSNQTDKLAAFPEDRSQPGQDCRFRVTQLPNGRDFHMSVVRARRNDSGTYLCGAISLAPKAQIKESLRAELRVTERRAEVPTAHPSPSPRPAGQFQTL	bound	bound	substantially inhibited	strongly selective binding to high surface density of PD-L1	undetectable	little competitive binding	–
6-arm PEG PD-1ecto: hexavalent PEG PD-1 ectodomain pharmacophore, arm length not stated at the place (3.4K and 10K forms made) (conjugate) PGWFLDSPDRPWNPPTFSPALLVVTEGDNATFTCSFSNTSESFVLNWYRMSPSNQTDKLAAFPEDRSQPGQDCRFRVTQLPNGRDFHMSVVRARRNDSGTYLCGAISLAPKAQIKESLRAELRVTERRAEVPTAHPSPSPRPAGQFQTL	highest binding	highest binding	–	strongly selective binding to high surface density of PD-L1	undetectable	little competitive binding	about 3.8 fold
